Key:
[1] = biological target: nucleosome on lambda DNA, reconstituted with fluorescently labeled histone octamer (Cy3-H2A or JFX554-H2A(K120C)) (UniProt P04911); experiment: single-molecule two-color colocalization on optically trapped DNA (optical tweezers with confocal microscopy); as a2, with 1 mM ATPγS
[2] = biological target: nucleosome on lambda DNA, reconstituted with fluorescently labeled histone octamer (Cy3-H2A or JFX554-H2A(K120C)) (UniProt P04911)
[3] = biological target: nucleosome on lambda DNA, reconstituted with fluorescently labeled histone octamer (Cy3-H2A or JFX554-H2A(K120C)) (UniProt P04911); experiment: single-molecule two-color colocalization on optically trapped DNA (optical tweezers with confocal microscopy); JFX650-labeled remodeler on sparse lambda nucleosome array (Cy3 or JFX554 on H2A) at ~5 pN, no ATP; dwell time of the 'non-diffusive' state of remodelers colocalized within ~500 bp of a nucleosome; double exponential fits
[4] = biological target: nucleosome on lambda DNA, reconstituted with fluorescently labeled histone octamer (Cy3-H2A or JFX554-H2A(K120C)) (UniProt P04911); remark: listed apart in the source
[5] = biological target: nucleosome on lambda DNA, reconstituted with fluorescently labeled histone octamer (Cy3-H2A or JFX554-H2A(K120C)) (UniProt P04911); experiment: single-molecule two-color colocalization on optically trapped DNA (optical tweezers with confocal microscopy); as a2, with 1 mM ATP; translocation events are included in the 'non-diffusive' state

Row | Substance | half-life of the non-diffusive state at a nucleosome [1] [s] | average nucleosome translocation speed (1 mM ATP) [2] [bp/s] | median duration of uninterrupted, speed-constant nucleosome translocations (1 mM ATP) [2] [s] | half-life of the non-diffusive state at a nucleosome [3] [s] | half-life of nucleosome translocation events (1 mM ATP) [4] [s] | half-life of the non-diffusive state at a nucleosome [5] [s]
1 | ISW2 chromatin remodeling complex with Isw2-3xFlag-HaloTag, labeled with JFX650 (from UniProt Q08773 1-1120) | 28 | 29 | 22 | 28 | 17 | 12
2 | RSC chromatin remodeling complex with Sth1-3xFlag-HaloTag, labeled with JFX650 or JFX554 (from UniProt P32597 1-1359) | 28 | 29 | 33 | 18 | 20 | 23

Source: PMC10948146
